Measurements as given in publication PMC12288609 (Bioorganic & medicinal chemistry letters, 2024).

System: HUVECs
Test: Endothelial cell tube formation assay
Conditions: 10 μM

SMILES: O=C1CCC(NC(=O)c2cc(F)c(F)c(F)c2F)C(=O)N1 (stereo not shown) [Compound 6]
- Antiangiogenic activity in the tube formation assay: Neither 5 and 6, in accordance with previous investigations,[13] nor the new compounds 9–19 demonstrated significant antiangiogenic activity
